Experimental data taken from publication PMC3794980, “Identification of Conserved and HLA Promiscuous DENV3 T-Cell Epitopes” (PLoS Neglected Tropical Diseases, 2013).
Like-named read-outs stand apart in the source and are kept apart here.

Assays:
Assay in all cases: biochemical
Assay type in all cases: binding
DRB1*0404 = DRB1*0404 (Homo sapiens, UniProt P01903+P01911, A100R/A169T/F76Y/I96L/K127E/L162R/M171V/N62H/P40V/Q125Y/R42H/S133A/S149N/S66Y/V209L/W38E)
DRB1*1501 = DRB1*1501 (Homo sapiens, UniProt P01903+P01911)
DRB1*1302 = DRB1*1302 (Homo sapiens, UniProt P01903+P01911, A100E/A169T/K41T/L162R/M171V/P40S/Q125H/Q178H/Q39Y/Q99D/R42S/S66N/T262R/V115G/W38E/Y61H)
DRB1*0101 = DRB1*0101 (Homo sapiens, UniProt P01903+P01911, A100R/D57E/F55L/F60I/F76Y/I96L/L162R/M171V/P40L/Q125E/R42F/V115G/Y59C)
DRB1*0901 = DRB1*0901 (Homo sapiens, UniProt P01903+P01911, A100R/A103E/D57H/D86V/F55Y/F60I/F76Y/I96F/K127E/L162R/M171V/P40D/Q125H/Q99R/R33Q/R42F/S133A/S66N/T210M/V115G/W38K/Y107V/Y59G/Y89S)
DRB4*0101 = DRB4*0101 (Homo sapiens, UniProt P01903+P13762, G164S); details: read-out: Binding Affinity (nM) DRB4*0101
DRB1*1101 = DRB1*1101 (Homo sapiens, UniProt P01903+P01911, A100R/A169T/A87E/I96F/K41T/L162R/M171V/P40S/Q125H/Q178H/Q39Y/Q99D/R42S/S66Y/T262R/V115G/W38E)
DRB1*0701 = DRB1*0701 (Homo sapiens, UniProt P01903+P01911, A100R/A102G/A103Q/D57E/D86V/E43K/F76Y/K127E/L162R/M171V/P40G/Q125H/Q99D/R33Q/R42Y/R54Q/S133A/S66F/T210M/V115G/Y107V/Y59L/Y89S)
DRB1*0802 = DRB1*0802 (Homo sapiens, UniProt P01903+P01911, A100R/A103L/A169T/F76Y/H45Y/I96F/K41T/L162R/M171V/P40S/Q125H/Q178H/Q39Y/Q99D/R218S/R42G/S66Y/V115G/W38E)
DRB1*0401 = DRB1*0401 (Homo sapiens, UniProt P01903+P01911, A100K/A169T/F76Y/I96L/K127E/L162R/M171V/N62H/P40V/Q125Y/R42H/S133A/S149N/S66Y/V115G/V209L/W38E)
DRB1*0301 = DRB1*0301 (Homo sapiens, UniProt P01903+P01911, A100K/A102G/A103R/A169T/F55Y/I96L/K41T/L162R/M171V/P40S/Q125H/Q178H/Q39Y/R42S/S66N/T106N/T262R/W38E/Y61H)
DRB1*0405 = DRB1*0405 (Homo sapiens, UniProt P01903+P01911, A100R/A169T/D86S/F76Y/I96L/K127E/L162R/M171V/N62H/P40V/Q125Y/R42H/S133A/S149N/S66Y/V115G/V209L/W38E)
[1] = read-out: Binding Affinity (nM) DRB1*0405

Row | SMILES | IC50 (DRB1*1501) | IC50 (DRB1*0101) | IC50 (DRB1*0901) | IC50 (DRB4*0101) | IC50 (DRB1*1101) | IC50 (DRB1*0701) | IC50 (DRB1*0802) | IC50 (DRB1*0301) | IC50 (DRB1*0404) | IC50 (DRB1*1302) | IC50 (DRB1*0401) | IC50 (DRB1*0405) | further results
1 | CC[C@H](C)[C@H](NC(=O)CNC(=O)[C@H](CO)NC(=O)CNC(=O)[C@H](CS)NC(=O)[C@H](CCCCN)NC(=O)[C@H](CC(C)C)NC(=O)[C@H](CCC(=O)O)NC(=O)[C@H](CCCCN)NC(=O)CNC(=O)[C@H](CCCCN)NC(=O)[C@H](Cc1c[nH]c2ccccc12)NC(=O)[C@H](CC(N)=O)NC(=O)[C@@H](NC(=O)[C@@H](N)C(C)C)[C@@H](C)CC)C(=O)O [NS1 5-19] | 1120 nM | 12.7 µM | 18100 nM | > 20000 nM | 13200 nM | 10.2 µM | 14900 nM | 14 µM |  |  |  |  | IC50 (DRB1*0404; read-out: Binding Affinity (nM) DRB1*0404): > 20000 nM; IC50 (DRB1*1302; read-out: Binding Affinity (nM) DRB1*1302): > 20000 nM; IC50 (DRB1*0401; read-out: Binding Affinity (nM) DRB1*0401): > 20000 nM; IC50 (DRB1*0405; [1]): > 20000 nM
2 | CC[C@H](C)[C@H](NC(=O)[C@@H]1CCCN1C(=O)CNC(=O)[C@H](C)NC(=O)[C@H](CC(C)C)NC(=O)[C@H](CO)NC(=O)[C@H](CCCCN)NC(=O)[C@@H]1CCCN1C(=O)[C@@H](NC(=O)[C@@H](NC(=O)[C@H](CCSC)NC(=O)[C@H](CC(=O)O)NC(=O)[C@H](CO)NC(=O)[C@H](CCC(=O)O)NC(=O)[C@@H](N)CC(C)C)[C@@H](C)CC)[C@@H](C)CC)C(=O)O [NS1 237-251] | 9580 nM | 1.58 µM | 4700 nM | > 20000 nM | 9610 nM | 5.24 µM | 10600 nM | 8.1 µM | 15700 nM | 4500 nM | 11400 nM |  | IC50 (DRB1*0405; [1]): > 20000 nM
3 | CC(C)C[C@H](NC(=O)[C@H](CCCNC(=N)N)NC(=O)[C@H](CCCCN)NC(=O)CNC(=O)[C@H](CC(N)=O)NC(=O)[C@H](Cc1ccc(O)cc1)NC(=O)[C@@H](NC(=O)[C@H](CC(C)C)NC(=O)[C@@H](N)C(C)C)[C@@H](C)O)C(=O)N[C@@H](CCC(=O)O)C(=O)N1CCC[C@H]1C(=O)N[C@@H](CC(N)=O)C(=O)N[C@@H](Cc1c[nH]c2ccccc12)C(=O)N[C@@H](C)C(=O)N[C@@H](CO)C(=O)O [NS3 57-71] | 196 nM | 0.882 µM | 4160 nM | > 20000 nM | 2310 nM | 1.91 µM |  | 1.74 µM | 7440 nM |  | 4470 nM | 10800 nM | IC50 (DRB1*0802; read-out: Binding Affinity (nM) DRB1*0802): > 20000 nM
4 | CSCC[C@H](NC(=O)[C@@H](NC(=O)[C@H](CCC(N)=O)NC(=O)[C@H](Cc1ccccc1)NC(=O)[C@H](CC(N)=O)NC(=O)[C@H](CCCCN)NC(=O)[C@@H]1CCCN1C(=O)[C@H](CC(N)=O)NC(=O)[C@H](CCCCN)NC(=O)CNC(=O)[C@@H]1CCCN1C(=O)[C@@H](N)CCC(=O)O)[C@@H](C)O)C(=O)N1CCC[C@H]1C(=O)NCC(=O)N[C@H](C(=O)O)[C@@H](C)O [NS3 101-115] | 447 nM | 0.201 µM |  | > 20000 nM |  | 1.48 µM | 18400 nM | 5.44 µM | 410 nM |  | 1470 nM | 725 nM | IC50 (DRB1*1302; competitive inhibition of radiolabeled standard peptide, '-' distinct from ND, read-out: Binding Affinity (nM) DRB1*1302): 2090 nM; IC50 (DRB1*0901; competitive inhibition of radiolabeled standard peptide, '-' distinct from ND, read-out: Binding Affinity (nM) DRB1*0901): 1860 nM; IC50 (DRB1*1101; read-out: Binding Affinity (nM) DRB1*1101): > 20000 nM
5 | CC[C@H](C)[C@H](NC(=O)[C@H](CO)NC(=O)[C@@H]1CCCN1C(=O)[C@@H](NC(=O)[C@H](Cc1ccccc1)NC(=O)[C@H](Cc1c[nH]c2ccccc12)NC(=O)[C@@H](NC(=O)[C@@H](NC(=O)[C@H](CCCCN)NC(=O)CNC(=O)[C@H](C)NC(=O)[C@H](Cc1ccccc1)NC(=O)[C@H](CC(=O)O)NC(=O)[C@@H](N)[C@@H](C)O)[C@@H](C)O)C(C)C)C(C)C)C(=O)N[C@@H](CCCCN)C(=O)O [NS3 353-367] | 2690 nM | 1.07 µM |  | > 20000 nM |  |  | 1620 nM | 16.6 µM | 858 nM |  | 4190 nM | 884 nM | IC50 (DRB1*1302; competitive inhibition of radiolabeled standard peptide, DRB1*1302, read-out: Binding Affinity (nM) DRB1*1302): > 20000 nM; IC50 (DRB1*0901; competitive inhibition of radiolabeled standard peptide, DRB1*0901, read-out: Binding Affinity (nM) DRB1*0901): 2150 nM
6 | CC(C)C[C@H](NC(=O)[C@H](CCCCN)NC(=O)[C@@H](NC(=O)[C@H](CCCCN)NC(=O)[C@H](CCC(N)=O)NC(=O)[C@H](Cc1ccc(O)cc1)NC(=O)[C@H](CCC(=O)O)NC(=O)[C@@H](N)[C@@H](C)O)[C@@H](C)O)C(=O)N[C@@H](CC(N)=O)C(=O)N[C@@H](CC(=O)O)C(=O)N[C@@H](Cc1c[nH]c2ccccc12)C(=O)N[C@@H](CC(=O)O)C(=O)N[C@@H](Cc1ccccc1)C(=O)N[C@H](C(=O)N[C@H](C(=O)O)C(C)C)C(C)C [NS3 393-407] |  | 7.65 µM | 11500 nM | > 20000 nM | 5940 nM | 0.456 µM | 8800 nM | 1.66 µM | 8120 nM | 17800 nM | 10800 nM | 7330 nM | IC50 (DRB1*1501; read-out: Binding Affinity (nM) DRB1*1501): > 20000 nM
7 | CC[C@H](C)[C@H](NC(=O)[C@H](CC(=O)O)NC(=O)[C@@H](NC(=O)[C@@H](NC(=O)[C@@H](NC(=O)[C@@H](NC(=O)[C@@H](N)Cc1ccccc1)C(C)C)C(C)C)[C@@H](C)O)[C@@H](C)O)C(=O)N[C@@H](CO)C(=O)N[C@@H](CCC(=O)O)C(=O)N[C@@H](CCSC)C(=O)NCC(=O)N[C@@H](C)C(=O)N[C@@H](CC(N)=O)C(=O)N[C@@H](Cc1ccccc1)C(=O)N[C@@H](CCCCN)C(=O)O [NS3 405-419] | 1360 nM | 1.95 µM | 11600 nM | > 20000 nM | 2960 nM | 3.63 µM |  |  |  | 1790 nM |  |  | 
8 | CC(C)[C@H](NC(=O)[C@H](CCC(=O)O)NC(=O)[C@H](Cc1ccc(O)cc1)NC(=O)[C@H](CO)NC(=O)CNC(=O)[C@H](Cc1c[nH]cn1)NC(=O)[C@H](Cc1ccc(O)cc1)NC(=O)[C@H](C)NC(=O)[C@H](Cc1c[nH]c2ccccc12)NC(=O)[C@@H](NC(=O)[C@H](CCCCN)NC(=O)[C@H](Cc1ccc(O)cc1)NC(=O)[C@@H]1CCCN1C(=O)[C@H](CC(N)=O)NC(=O)[C@H](CCC(=O)O)NC(=O)[C@@H](N)CC(=O)O)[C@@H](C)O)C(=O)N[C@@H](CCCCN)C(=O)O [NS5 295-311] |  |  |  | > 20000 nM | 2730 nM |  | 1200 nM |  |  |  |  |  | 
9 | CC(C)[C@H](NC(=O)[C@H](CCC(=O)O)NC(=O)[C@H](Cc1ccc(O)cc1)NC(=O)[C@H](CO)NC(=O)CNC(=O)[C@H](Cc1c[nH]cn1)NC(=O)[C@H](Cc1ccc(O)cc1)NC(=O)[C@H](C)NC(=O)[C@H](Cc1c[nH]c2ccccc12)NC(=O)[C@@H](N)[C@@H](C)O)C(=O)N[C@@H](CCCCN)C(=O)N[C@@H](C)C(=O)N[C@H](C(=O)NCC(=O)N[C@@H](CO)C(=O)N[C@@H](C)C(=O)O)[C@@H](C)O [NS5 301-316] |  |  |  | > 20000 nM |  |  | 1180 nM | 1.28 µM |  | 3610 nM |  | 3140 nM | 
10 | CC[C@H](C)[C@H](NC(=O)[C@H](Cc1ccc(O)cc1)NC(=O)CNC(=O)[C@H](CC(C)C)NC(=O)[C@H](CCCCN)NC(=O)[C@H](Cc1c[nH]cn1)NC(=O)[C@H](CC(C)C)NC(=O)CNC(=O)[C@H](CCC(=O)O)NC(=O)CNC(=O)[C@H](CCC(=O)O)NC(=O)[C@@H](NC(=O)CNC(=O)[C@H](CO)NC(=O)[C@H](Cc1ccc(O)cc1)NC(=O)[C@H](CO)NC(=O)[C@@H](N)CC(N)=O)C(C)C)C(=O)O [NS5 501-517] |  |  |  | > 20000 nM |  |  |  |  |  |  |  |  | 
